This is an account of results in patent US10125116B2, “Compounds and methods for treating mammalian gastrointestinal microbial infections” (Brandeis University, priority 2009, dated 2018).

The test has as its target human type II IMPDH (Homo sapiens, UniProt P12268). The experiment in a line: human IMPDH type II selectivity assay. Conditions: read-out: IC50 human IMPDH-II.

On to `COc1ccc(NC(=O)Cn2c(-c3cscn3)nc3ccccc32)cc1`, for which the IC50 was more than 50 µM.

In general, IC50 refers to the midpoint of a concentration-inhibition curve.
